# Ab-14 heavy chain CDR variants: yeast mating affinities

Data: MIT Lincoln Laboratory AlphaSeq set, Li et al. 2023, doi:10.1038/s41467-023-39022-2, as distributed in FLAb.

All variants were tested on one target, the spike HR2 peptide PDVDLGDISGINAS (SARS-CoV-2).

Parent: Ab-14, a human scFv built as VH, a 15-residue (Gly4Ser)3 linker, VL. Only the CDRs of the heavy chain vary.
VH: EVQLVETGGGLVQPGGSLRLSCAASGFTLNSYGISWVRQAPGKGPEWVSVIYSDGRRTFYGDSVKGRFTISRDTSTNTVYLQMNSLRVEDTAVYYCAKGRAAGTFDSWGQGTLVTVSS
VL: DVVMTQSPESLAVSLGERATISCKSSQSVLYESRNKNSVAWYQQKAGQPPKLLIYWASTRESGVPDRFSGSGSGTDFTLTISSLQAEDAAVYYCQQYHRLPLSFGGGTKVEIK

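The parent was found by panning a naive human phage display library on the peptide. The variants were designed computationally from a first round of random CDR variants and then made and measured. Several design methods are mixed in this list. The scFvs were displayed on barcoded MATa yeast, the peptide on MATalpha yeast. Mating (16 h, 30 °C) was followed by selection of diploids and sequencing of their barcodes. Read counts were normalised to the haploid input and turned into Kd by a linear fit to BCL2-family pairs of known affinity, for each replicate. Each pool was mated in six replicate cultures.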

Each variant is given by its three heavy chain CDRs, as the data file delimits them; those of the parent are GFTLNSYGIS, VIYSDGRRTFYGDSVK, GRAAGTFDS.
Variants here have more than six changes.
Values are apparent Kd, the geometric mean of the replicates that gave a signal; lower means stronger binding.
A pair that was not seen in any replicate is written "nd"; this usually means weak binding, but a binder can also be missed.
The authors averaged sequences with at least three values out of six and counted those with two or fewer as poor binders.

With GYQLEDYGIS | VIYADGRRTAYAADVK | GQGVVVFAG the result was nd (0 of 6 replicates).
With GFDLDEYGIS | VIYADGQRTAYADSVK | GNTAGTFDL the result was 410 pM (6 of 6 replicates).
With GFDLNEYGIS | VIYADGSRKVYADSVK | GNVAGTFDV the result was 260 pM (6 of 6 replicates).
With GFDLNEYGIS | VIYADGRRTAYADSVK | GQVAGTFDK the result was 230 pM (6 of 6 replicates).
With GFDLNEYGIS | VIYADGRRTQYIDSVK | GNEAGTFDM the result was nd (0 of 6 replicates).
With GFDLDEYGIS | VIYADGRRTAYADSVK | GTNAGTFDT the result was 360 pM (6 of 6 replicates).
With GFDLEEYGIS | VIYADGKRTFYADSVK | GNVAGTFDV the result was 290 pM (6 of 6 replicates).
With GFDLEEYGIS | VIYADGTRTAYADSVK | GNVAGTFDS the result was 820 pM (6 of 6 replicates).
With GFDLEDYGIS | VIYADGRRTAYADSVK | GNVAGTFDI the result was 760 pM (6 of 6 replicates).
With GFDLNEYGIS | VIYADGRRTFYTDSVK | GGNAGTFDM the result was 530 pM (6 of 6 replicates).
With GFDLDKYGIS | VIYADGKRVAYTDDVK | GVTGGMLLV the result was nd (0 of 6 replicates).
With GFDLDEYGIS | VIYADGRRTFYQDSVK | GQNAGTFDV the result was 110 pM (6 of 6 replicates).
With GFDLNEYGIS | VIYADGSRTAYADKVK | GEVAGTFDV the result was 2.9 nM (6 of 6 replicates).
With GFNLDEYGIS | VIYADGRRTFYADSVK | GQIAGTFIV the result was 7.0 nM (6 of 6 replicates).
With GFDLDQYGIS | VIYADGRRTAYANDVK | GKYAGSFLD the result was 13 nM (6 of 6 replicates).
With GFSLDEYGIS | VIYADGRRTFYADSVK | GENAGTFLM the result was 3.8 nM (6 of 6 replicates).
With GFDLDEYGVS | VIYADGERTFYQDKVK | GTHGNTRVL the result was nd (0 of 6 replicates).
With GFTLDEYGIS | VIYADGRRTFYADDVK | GETAGTFDI the result was 490 pM (6 of 6 replicates).
With GFVIDEYGIS | VIYADGSRQVYQDKVK | GKGTGNFTT the result was nd (0 of 6 replicates).
With GFDLEDYGIS | VIYADGMRTFYADSVK | GEIAGTFDL the result was 1.3 nM (6 of 6 replicates).
With GFDLDEYGIS | VIYADGKRTFYADSVK | GNVAGTFDQ the result was 210 pM (6 of 6 replicates).
With GFDLNEYGIS | VIYADGRRTAYSDSVK | GGNAGTFDL the result was 180 pM (6 of 6 replicates).
With GFDLDEYGIS | VIYADGSRTVYADSVK | GEVAGTFDV the result was 450 pM (6 of 6 replicates).
With GFDLNEYGIS | VIYADGKRTFYADSVK | GNEAGTFDV the result was 450 pM (6 of 6 replicates).
With GFEIQDYGIS | VIYADGLRTSYSNKFK | GIIAGTFTS the result was 2.4 nM (6 of 6 replicates).
With GMSLDEYGIS | VIYADGMRSAYSDKVK | GHVDEYAYV the result was nd (0 of 6 replicates).
With GFNLNEYGIS | VIYADGRRKFYADSVK | GNTAGTFDE the result was 250 pM (6 of 6 replicates).
With GFDLQEYGIS | VIYADGVRMAYTDSVK | GNWSGRDML the result was nd (0 of 6 replicates).
With GFDLDEYGIS | VIYADGVRTAYADSVK | GSNAGTFDI the result was 240 pM (6 of 6 replicates).
With GFGLDEFGIS | VIYADGLRSSYADDVK | GEMTGGFIV the result was nd (0 of 6 replicates).
With GVNLDEYGIS | VIYADGKRSHYTDKVK | GTFGDFMMV the result was nd (0 of 6 replicates).
With GFDLNEYGIS | VIYADGVRTAYVDSVK | GGNAGTFDV the result was 110 pM (6 of 6 replicates).
With GFNLNEYGIS | VIYADGRRTFYADSVK | GGLAGTFDV the result was 360 pM (6 of 6 replicates).
With GFDLNEYGIS | VIYADGMRTAYADSVK | GEVAGTFVL the result was 300 pM (6 of 6 replicates).
With GFDLNEYGIS | VIYADGRRTSYIDSVK | GNVAGTFDV the result was nd (0 of 6 replicates).
With GFDLNEYGIS | VIYADGVRTAYADDVK | GTNAGTFDV the result was 95 pM (4 of 6 replicates).
With GFDLDEYGIS | VIYADGMRTAYADDVK | GEVAGTFDV the result was 410 pM (6 of 6 replicates).
With GDGIDEYGIS | VIYADGHRKQYSENVK | GYNAGTLDE the result was nd (0 of 6 replicates).
With GFDLNEYGIS | VIYADGQRTFYTDSVK | GENAGTFDV the result was 530 pM (5 of 6 replicates).
With GFDLDEYGIS | VIYADGRRTFYADSVK | GENAGTFLM the result was 12 nM (1 of 6 replicates).
With GFDLNEYGIS | VIYADGRRTYYSDSVK | GNVAGTFDK the result was 480 pM (6 of 6 replicates).
With GFDLNEYGIS | VIYADGRRTFYADSVK | GEAAGTFFT the result was 6.4 nM (6 of 6 replicates).

A selection of 7 entries from above:

For GFDLNEYGIS | VIYADGSRKVYADSVK | GNVAGTFDV, the assay gave 260 pM (6 of 6 replicates).
For GYQLEDYGIS | VIYADGRRTAYAADVK | GQGVVVFAG, the assay gave nd (0 of 6 replicates).
For GFDLNEYGIS | VIYADGRRTAYADSVK | GQVAGTFDK, the assay gave 230 pM (6 of 6 replicates).
For GMSLDEYGIS | VIYADGMRSAYSDKVK | GHVDEYAYV, the assay gave nd (0 of 6 replicates).
For GFDLQEYGIS | VIYADGVRMAYTDSVK | GNWSGRDML, the assay gave nd (0 of 6 replicates).
For GFDLEEYGIS | VIYADGTRTAYADSVK | GNVAGTFDS, the assay gave 820 pM (6 of 6 replicates).
For GFDLDEYGIS | VIYADGSRTVYADSVK | GEVAGTFDV, the assay gave 450 pM (6 of 6 replicates).

Values of this round are not directly comparable with the first-round values of the same sequences.
Empty control strains, which show no peptide, gave a signal in 1% of pairings with all heavy chain designs; the median was 120 nM and 95% of these signals were weaker than 7.0 nM. No background was subtracted.